Laboratory results: patent US11279687B2, “Compounds and compositions for the inhibition of NAMPT” (Valo Health, Inc., priority 2010, dated 2022)

Protein sequences, listed by entry. Tags and fused reporters are not part of them. Lines headed by an entry give the natural chain unless they say otherwise; changes in a name come on top.
UniProt P43490: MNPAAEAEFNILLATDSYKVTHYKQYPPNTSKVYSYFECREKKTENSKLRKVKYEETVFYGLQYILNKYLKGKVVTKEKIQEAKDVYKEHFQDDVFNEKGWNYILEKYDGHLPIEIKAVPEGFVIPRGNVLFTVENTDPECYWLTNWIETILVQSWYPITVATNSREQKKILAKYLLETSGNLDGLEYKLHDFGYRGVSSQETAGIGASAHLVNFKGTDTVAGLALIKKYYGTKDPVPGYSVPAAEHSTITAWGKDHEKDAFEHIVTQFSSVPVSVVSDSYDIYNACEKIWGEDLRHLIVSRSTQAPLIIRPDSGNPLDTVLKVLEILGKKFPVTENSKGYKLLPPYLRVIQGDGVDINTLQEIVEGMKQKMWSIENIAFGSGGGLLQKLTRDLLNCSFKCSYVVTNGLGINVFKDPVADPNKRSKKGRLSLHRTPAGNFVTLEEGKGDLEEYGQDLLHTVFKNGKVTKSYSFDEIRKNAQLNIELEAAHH

Target: NAMPT (Homo sapiens (Human), UniProt P43490)
Experiment: NAMPT biochemical inhibition assay (NMN quantified by mass spectrometry)
Settings: read-out: Biochem IC50

Nc1ccc(CNC(=O)Nc2ccc(S(=O)(=O)c3ccccc3)cc2)cn1 [1-[(6-aminopyridin-3-yl)methyl]-3-[4-(benzenesulfonyl)phenyl]urea]
IC50: 3 nM
